We go through 99 molecules from PubChem BioAssay AID602329 (Broad Institute, 2012).

Chains of the proteins cited; added tags and fusions are not shown. Lines headed by an entry give the natural chain unless they say otherwise; changes in a name come on top.
UniProt Q92698: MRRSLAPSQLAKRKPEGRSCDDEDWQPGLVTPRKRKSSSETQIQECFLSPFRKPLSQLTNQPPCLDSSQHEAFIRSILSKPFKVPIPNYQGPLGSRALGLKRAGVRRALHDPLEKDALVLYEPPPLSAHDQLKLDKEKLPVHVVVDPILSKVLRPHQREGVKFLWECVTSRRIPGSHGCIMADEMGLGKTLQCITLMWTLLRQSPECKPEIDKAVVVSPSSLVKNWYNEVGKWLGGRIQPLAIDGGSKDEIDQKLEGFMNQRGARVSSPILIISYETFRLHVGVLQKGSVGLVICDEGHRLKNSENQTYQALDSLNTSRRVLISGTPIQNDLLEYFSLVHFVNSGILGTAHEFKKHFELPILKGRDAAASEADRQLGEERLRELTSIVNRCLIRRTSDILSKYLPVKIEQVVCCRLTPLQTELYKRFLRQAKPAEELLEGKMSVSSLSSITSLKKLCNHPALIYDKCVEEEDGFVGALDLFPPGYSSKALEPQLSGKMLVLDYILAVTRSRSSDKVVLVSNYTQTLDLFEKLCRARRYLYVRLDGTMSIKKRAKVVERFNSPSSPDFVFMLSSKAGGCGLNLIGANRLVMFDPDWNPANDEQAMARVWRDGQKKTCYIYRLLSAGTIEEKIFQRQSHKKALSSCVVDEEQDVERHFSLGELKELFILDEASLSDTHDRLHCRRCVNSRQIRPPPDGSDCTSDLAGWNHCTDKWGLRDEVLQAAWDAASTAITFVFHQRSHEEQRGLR

The list shows a part of the results, in another mix than the full data. Calls of active or inactive are those of the source.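 How the source made its calls: active means mean normalized replicate activity at least 40 and at least half of replicates scoring 40 or more; inconclusive means only one of the two criteria met; inactive means mean below 40 and under half of replicates reaching 40.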

This assay has as its target DNA repair and recombination protein RAD54-like (Homo sapiens) (UniProt Q92698). The experiment in a line: RAD54 Holliday junction migration blockers – biochemical, fluorescence, single point, primary screen (AID 602329).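 Further: 0% = median of neutral control wells and 100% = median of positive control wells; inhibitors cause a drop in the FAM fluorescence signal.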 Particulars: RAD54 Holliday junction branch migration, FAM/BHQ fluorescence; at 10.4 µM; hits give high values.
Consider `Cc1ccc(OP(=O)(Nc2ccc([N+](=O)[O-])cn2)Oc2ccc(C)cc2)cc1`, for which the inhibition (in general, the relative decrease from the control value, in per cent) is inactive: -6.65%. On to `C[As](=O)(O)c1cccc(C(=O)O)c1`, for which the inhibition is inactive: 5.62%. Next, `O=[As](O)(c1ccc(O)cc1)c1ccccc1O`: inactive: -2.88%; `O=[N+]([O-])c1ccc(-c2cc([N+](=O)[O-])c(O)c([N+](=O)[O-])c2)cc1`: inactive: -6.1%. Next, `CCN(CC)C(=S)SC(NC=O)C(Cl)(Cl)Cl` (centres undefined): inactive: -2.23%; `O=C(OC1CN2CCC1CC2)c1cccc2[nH]cnc12` (centres undefined): inactive: 11.5%. Take `ClCCSc1nnc(-c2cccnc2)o1`: the inhibition is inactive: 7.59%. Next, `CC(C)c1ccc(OP(=O)(Nc2ccccn2)Oc2ccccc2F)cc1` (centres undefined): inactive: -13.4%; `O=P1(N(CCCl)CCCl)Nc2ccccc2N1`: inactive: -0.344%; `COc1ccc(CN2/C(=N\P(=O)(Oc3ccccc3)Oc3ccccc3)Cc3ccccc3C2C2CC2)cc1` (centres undefined): inactive: 0.0625%. For `COc1cc(I)ccc1[As](=O)(O)O`, the inhibition is inactive: -2.78%. With `O=C(OC1CN2CCC1CC2)C12CC3CC(CC(C3)C1)C2` (centres undefined), the inhibition is inactive: -1.55%. Next, `Cc1cc(=O)[nH]c(N[N+](=O)[O-])n1`: inactive: 6.74%; `COc1ccc(N/C(=N/P(=O)(N2CCOCC2)N2CCOCC2)N2CCOCC2)cc1`: inactive: -9.04%.

`O=C(O)C(=O)c1ccc(N(CCCl)CCCl)cc1`: the inhibition is inactive: -0.0855%.

`O=C(COc1ccccc1)OC1CN2CCC1CC2` (centres undefined): the inhibition was inactive: -6.97%. Turning to `O=C(Nc1ccncc1[N+](=O)[O-])c1ccc([N+](=O)[O-])cc1[N+](=O)[O-]`, the inhibition is inactive: 11.5%. As for `COP1(=S)c2c(C)nn(CCC#N)c2N=C(c2ccc(F)cc2)N1C` (centres undefined), the inhibition was inactive: 10.3%. With `CCC(C)N(CC(C)C)C(=S)SC(NC(C)=O)C(Cl)(Cl)Cl` (centres undefined), the inhibition is inactive: 1.24%.

In the case of `O=C(OC1CN2CCC1CC2)c1cccc([N+](=O)[O-])c1` (centres undefined), the inhibition is inactive: 1.01%. Regarding `CSc1ccc(Nc2c([N+](=O)[O-])cc([N+](=O)[O-])cc2[N+](=O)[O-])cc1`, the inhibition was inactive: -4.16%. Next, `CCOC(=O)c1ccc(NC(=O)C(C)(CCl)SC)cc1` (centres undefined): inactive: -2.83%; `COP(=O)(OC)N1CC1c1ccccc1` (centres undefined): inactive: -0.61%; `CCCCOc1ccc(C(=O)NCC2(N3CCCCC3)CCCCC2)cc1OC`: inactive: -6.13%. Consider `O=C(O)C(O)c1ccc(N(CCCl)CCCl)cc1` (centres undefined), for which the inhibition is inactive: 5.65%.

Turning to `CCOC(=O)Nc1ccc([As](=O)(O)O)c(O)c1`, the inhibition was inactive: 1.73%. Next, `CC1CCNP(=O)(N(CCCl)CCCl)O1` (centres undefined): inactive: -0.231%; `O=[N+]([O-])c1ccc(Nc2ccc(Oc3ccc([N+](=O)[O-])cc3[N+](=O)[O-])cc2)c([N+](=O)[O-])c1`: inactive: -8.9%; `CCOC(=O)Nc1cccc([As](=O)(O)O)c1`: inactive: -0.0855%. Next, `Cc1nn(-c2ccccc2)c2c1P(=O)(N1CCOCC1)N(C)C(c1ccccc1)=N2` (centres undefined): inactive: 11.4%; `Cc1ccc(C(=O)OC2CN3CCC2CC3)cc1` (centres undefined): inactive: -1.95%; `CC1CCC(C(C)C)C(OP(=O)(Nc2ccccn2)c2ccccc2)C1` (centres undefined): inactive: -2.13%.

For the molecule `Nc1cccc([As](=O)(O)c2ccccc2)c1`, the inhibition is inactive: 9.11%. Take `NS(=O)(=O)c1cccc(NC(=O)COC(=O)C(O)(c2ccccc2)c2ccccc2)c1`: the inhibition is inactive: 2.06%. Take `O=P1(Nc2ccc(Br)cn2)COc2ccccc2OC1`: the inhibition was inactive: 5.27%. Next, `Cc1ccc(OCC(=O)OC2CN3CCC2CC3)cc1` (centres undefined): inactive: -12.1%; `O=[As](O)(c1cccs1)c1cccs1`: inactive: 5.89%; `Cc1ccc(S(=O)(=O)N(CCCN)CCCc2c(C)nc(N)[nH]c2=O)cc1`: inactive: 2.5%.

Turning to `O=P1(Nc2ncccn2)COc2ccccc2OC1`, the inhibition was inactive: -8.9%. Take `Clc1n[nH]nc1-c1nn[nH][15n]1`: the inhibition is inactive: -8.73%. Next, `O=P1(N(CCCl)CCCl)NCCC(C(F)(F)F)O1` (centres undefined): inactive: -4.15%; `CC(C)(C)C(=O)NC(Sc1ncccn1)C(Cl)(Cl)Cl` (centres undefined): inactive: 7.07%; `CCC1=CC2Cc3nc4ccc(Cl)cc4c(N)c3C(C1)C2` (centres undefined): inactive: -6.9%.

Regarding `O=P1(Nc2ccccn2)COc2ccccc2OC1`, the inhibition is inactive: 11.7%. Next, `CCOP(=O)(NC(=NC(C)c1ccccc1)NC(C)c1ccccc1)OCC` (centres undefined): inactive: 0.545%; `CN(CCCl)Cc1cc(Cl)c(NC2=NCCN2)c(Cl)c1`: inactive: -3.99%. `CN(C(=O)Cc1ccc(Cl)c(Cl)c1)[C@@H]1CCCC[C@H]1N1CCCC1`: the inhibition was inactive: 4.75%.

`CC(C)/C=N\N=C(\N)N[N+](=O)[O-]`: the inhibition was inactive: 1.41%. Regarding `O=[As](O)(c1cccc(O)c1)c1cccc(O)c1`, the inhibition is inactive: -8.82%. With `Cc1cccc(OCC(=O)OC2CN3CCC2CC3)c1` (centres undefined), the inhibition was inactive: -4.77%. Next, `O=C(OC1CN2CCC1CC2)c1ccc(Cl)cc1` (centres undefined): inactive: 13%; `O=[As](O)(O)c1cccnc1`: inactive: 4.58%; `CS(=O)(=O)c1ccc(Cl)c(NC(=O)COC(=O)C(O)(c2ccccc2)c2ccccc2)c1`: inactive: -4.42%. On to `Cc1ccc(NCCc2c([N+](=O)[O-])cc([N+](=O)[O-])cc2[N+](=O)[O-])cc1`, for which the inhibition is inactive: 3.74%.

Take `Nc1cccc2c([As](=O)(O)O)cccc12`: the inhibition was inactive: -52.6%.

Consider `CCCOP(=S)(Nc1nc(N)cc(=O)[nH]1)OCCC`, for which the inhibition is inactive: 3.11%. `O=C(O)COc1ccc([As](=O)(O)O)cc1[N+](=O)[O-]`: the inhibition is inactive: 7.8%. Next, `Nc1ccccc1[As](=O)(O)c1ccccc1`: inactive: -12%; `CCOP1(=S)c2c(C)nn(CCC#N)c2N=C(c2ccccc2F)N1C` (centres undefined): inactive: -16.7%. Next, `O=P(Nc1nccs1)(c1ccccc1)c1nc2ccccc2s1` (centres undefined): inactive: -4.98%; `N#CCCN(C(=O)COC(=O)C(O)(c1ccccc1)c1ccccc1)c1ccc(F)cc1`: inactive: 6.9%. Next, `CCOP1(=S)c2c(C)nn(CCC#N)c2N=C(c2ccc(F)cc2)N1C` (centres undefined): inactive: 4.28%; `CN(C(=O)Cc1ccccc1)[C@@H]1CC[C@]2(CCCO2)C[C@H]1N1CCCC1`: inactive: -13.9%. With `CN(C)C(=O)c1cc([N+](=O)[O-])cc2c1-c1c(cc([N+](=O)[O-])cc1[N+](=O)[O-])C2=O`, the inhibition was inactive: -4.18%. On to `O=[N+]([O-])c1ccc2c(c1)nnn2O`, for which the inhibition was inactive: -3.34%. Next, `CN(C(=O)Cc1ccc(Cl)c(Cl)c1)[C@H]1CC[C@@]2(CCCO2)C[C@@H]1N1CCCC1`: inactive: 5.74%; `NC(=O)Nc1ccc([As](=O)(O)O)cc1`: inactive: -11.4%; `O=P1(N(CCCl)CCCl)OCCC2CCCCN21` (centres undefined): inactive: -14.6%. Next, `Cc1ccc(NP(=O)(Oc2cccc(C)c2)Oc2cccc(C)c2)nc1`: inactive: -0.211%. In the case of `CCNC(=S)/N=C(\N)N[N+](=O)[O-]`, the inhibition was inactive: -1.93%.

On to `CC(NC(=O)COC(=O)C(O)(c1ccccc1)c1ccccc1)c1ccccc1` (centres undefined), for which the inhibition is inactive: -0.79%. Take `CN(C)C(=O)Oc1noc2ccccc12`: the inhibition is inactive: -1.52%.

`O=C(OC1CN2CCC1CC2)c1ccccc1` (centres undefined): the inhibition was inactive: -1.18%. Next, `CCC(=O)N1C2C3N(C(=O)CC)C1C1N(C(=O)CC)C(C(N1C(=O)CC)N3C(=O)CC)N2C(=O)CC`: inactive: 2.19%; `COC(=O)c1cc2c(s1)N=C(c1ccccc1)N(C)P2(=O)N1CCOCC1` (centres undefined): inactive: 2.69%; `CC(=O)NC(SC(=S)N(CC(C)C)CC(C)C)C(Cl)(Cl)Cl` (centres undefined): inactive: -7.77%.

With `CCc1cc(O)c([N+](=O)[O-])c(C)c1[N+](=O)[O-]`, the inhibition was inactive: 6.23%. Next, `O=P1(Nc2nc3ccc(Cl)cc3s2)COc2ccccc2O1` (centres undefined): inactive: -10.1%; `CC(=O)Nc1ccc([As](=O)(O)O)c(O)c1`: inactive: 3.16%; `CC(=O)Nc1ccc(Oc2c([N+](=O)[O-])cc([N+](=O)[O-])cc2[N+](=O)[O-])cc1`: inactive: -1.05%. As for `Cc1ccccc1CN(C)C(=O)COC(=O)C(O)(c1ccccc1)c1ccccc1`, the inhibition is inactive: -11.6%. As to `C[C@@H]1C=CCP(=O)(Oc2ccccc2)O1` (some centres undefined), the inhibition is inactive: -2.21%. Next, `C[C@H]1OP(=O)(Oc2ccccc2)C[C@@H]2O[C@@H]21` (some centres undefined): inactive: 1.41%; `CC(=O)c1ccc(N2CC2c2ccncc2)cc1` (centres undefined): inactive: -12.5%; `c1nnnn1CCn1cnnn1`: inactive: -3.18%. As for `O=P(Nc1nccs1)(c1ccccc1)c1ccccc1`, the inhibition was inactive: -0.14%. Next, `O=P(Nc1nc2ccccc2s1)(c1ccccc1)c1ccccc1`: inactive: -4%. Next, `C[C@H]1OP(=O)(Oc2ccccc2)[C@H](O)[C@H](O)[C@H]1N=[N+]=[N-]` (some centres undefined): inactive: 13.3%.

`CN(C)C1(CNC(=O)c2ccc(Cl)c(S(N)(=O)=O)c2)CCCCC1`: the inhibition is inactive: -11.6%. Next, `O=P(Nc1ccccn1)(c1ccc(Br)cc1)c1ccc(Br)cc1`: inactive: -8.79%.

`Nc1ccc(CCCCOc2ccccc2)cc1`: the inhibition was inactive: 0.615%. Next, `COc1ccc(N)c([N+](=O)[O-])c1[N+](=O)[O-]`: inactive: -2.53%. For the molecule `O=C(OC1CN2CCC1CC2)c1cccc(Cl)c1` (centres undefined), the inhibition was inactive: -9.85%. Regarding `Nc1ccc([As](=O)(O)c2ccc([N+](=O)[O-])cc2)cc1`, the inhibition is inactive: 0.237%. Next, `O=[As](O)(c1ccccc1)c1ccc(O)cc1`: inactive: 1.08%; `CC(=O)NC(SC(=S)N(C)C)C(Cl)(Cl)Cl` (centres undefined): inactive: -4.55%. `O=[N+]([O-])c1ccc(O)c(/C=N/Nc2ccc([N+](=O)[O-])cc2[N+](=O)[O-])c1`: the inhibition is inactive: -12.8%. `O=C(Nc1cc([As](=O)(O)O)ccc1O)c1ccccc1`: the inhibition was inactive: 0.322%. On to `O=P1(N(CCCl)CCCl)OCCCS1` (centres undefined), for which the inhibition is inactive: -6.59%.
